# Data published in PubChem BioAssay AID1776 (NMMLSC, 2009).
# The entries are a selection whose mix differs from that of the whole data set. The source made the active and inactive calls. Cut-off read from the data, not from the text of the source: active = fluorescence above about 89; inactive = the rest.
# Assay: compound fluorescence on glutathione beads, profiling panel, artefact control, biophysical, 488/530 nm, flow cytometry (AID 1776);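 note: glutathione beads carrying GST-tagged Bcl family fusion proteins plus one bare bead set; values are compound well signal with DMSO vehicle wells as background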
# Details: GSH beads flow cytometry, compound fluorescence 488/530 nm; at 10 µM; active compounds read high
row,SMILES,fluorescence (KMESF)
1,COc1ccc(NC2CCN(CCc3ccccc3)CC2)c(OC)c1,inactive: 23
2,O=C(NCC1(N2CCOCC2)CCCCC1)c1cc2ccccc2o1,inactive: 14
3,CCOC(=O)N1CCC(Nc2ccc(OC)cc2)CC1,inactive: 17
4,O=C(OC1CN2CCC1CC2)C1c2ccccc2Oc2ccccc21 (stereo not given),inactive: 11
5,COc1ccc(C(=O)NCC2(N3CCCCC3)CCCCC2)c(OC)c1OC,inactive: 9
6,CN(C)c1cccc(C(=O)NCC2(N3CCCCC3)CCCCC2)c1,inactive: 10
7,COc1ccc(CN(CCCl)CCCl)cc1Cl,inactive: 12
8,CC(C)c1ccc(NC2CCN(C(=O)OC(C)(C)C)CC2)cc1,inactive: 11
9,COc1ccc(NC2CCN(C(=O)OC(C)(C)C)CC2)cc1,inactive: 15
10,CN1CCN(CCOC(=O)C(O)(c2ccccc2)c2ccccc2)CC1,inactive: 8
11,O=C(NCC1(N2CCOCC2)CCCCC1)c1cc(=O)[nH]c2ccccc12,inactive: 22
12,O=C(NCC1(N2CCCCC2)CCCCC1)c1cccc([N+](=O)[O-])c1,inactive: 10
13,N#CC1(Nc2ccccc2)CCN(CCc2ccccc2)CC1,inactive: 22
14,c1ccc(CN2CCC(Nc3ccccc3)CC2)cc1,inactive: 5
15,N#Cc1ccc(C(=O)NCC2(N3CCCCC3)CCCCC2)cc1,inactive: 16
16,N/C(=N\O)c1c(N)no[n+]1[O-],inactive: 68
17,O=C(OC1CN2CCC1CC2)C1c2ccccc2C=Cc2ccccc21 (stereo not given),inactive: 7
18,COc1ccc(C(=O)NCC2(N3CCOCC3)CCCCC2)cc1OC,inactive: 12
19,CCC(CO)(C(=O)OC1CN2CCC1CC2)c1ccccc1 (stereo not given),inactive: 24
20,COc1cc(OC)cc(C(=O)NCC2(N3CCOCC3)CCCCC2)c1,inactive: 12
21,CCOc1ncccc1C(=O)NCC1(N2CCOCC2)CCCCC1,inactive: 57
22,CC(C)(C)OC(=O)N1CCC(Nc2ccccc2)CC1,inactive: 14
23,CCN1CCC(Nc2cccc(F)c2)CC1,inactive: 19
24,CN(C)c1ccc(C(=O)NCC2(N3CCCCC3)CCCCC2)cc1,inactive: 10
25,Fc1ccccc1NC1CCN(Cc2ccccc2)CC1,inactive: 12
